System: EAC cells
Assay: Antitumor effect of compound 1 and doxorubicin on EAC in C3H mice (Example 20)
Assay type: in vivo
Conditions: dose 50 μg/mouse i.v. (doxorubicin equivalent, 2.5 mg/kg), days 2, 4, 6, day 9
Method: A study of the anti-tumour effect of compound 1 as compared with doxorubicin was carried out in EAC, passed in C3H mice. 20-22 g males of C3H mice were used. Control and experimental groups included 7 animals, which were inoculated 5×10^6 EAC cells i.p. in volume 0.2 ml at day 0. On second, fourth and sixth days following inoculation the doses of 20, 50 and 100 μg/mouse of compound 1, equivalent ones of doxorubicin, in 200 μl of normal mice serum (NMS) were injected i.v. Three groups of animals were administrated water solutions of doxorubicin in doses^—of 1, 2.5 and 5 μg/kg of body weight (20, 50 and 100 μg/mouse by weight of 20 g accordingly). One group of mice was untreated control. Results of experiment were accounted on ninth day. Mice were killed by cervical dislocation. Ascitic fluids were removed, collected, their volumes were measured, and abdominal cavities were washed by saline solution 6-7 times. Thus obtained fluids were pooled. The number of viable tumor cells was counted by hemocytometer, using trypan blue exclusion test. The mean and the standard mean error was calculated for each group of mice. Comparison of tumor cell number in control and experimental groups was carried out using Student t-test. Influence of tested preparation on EAC growth inhibition was evaluated by: [formula]

COc1cccc2c1C(=O)c1c(O)c3c(c(O)c1C2=O)C[C@@](O)(C(=O)CO)C[C@@H]3O[C@H]1C[C@H](N)[C@H](O)[C@H](C)O1 [DXR, doxorubicin, reference compound]
EAC growth inhibition, % to control: 45.4%
